The results in this text go back to US9695228B2, “EGFR and c-Met fibronectin type III domain binding molecules” (Janssen Biotech, Inc., priority 2012, dated 2017).

Where “and” joins values, the source holds several entries; their conditions need not be identical. Identical values can stand only once. Like-named read-outs stand apart in the source and are kept apart here.

In this data set the test system is H292-HGF human lung cancer xenograft. The class given is in vivo.

With Cetuximab: anti-EGFR antibody, for the setting “compared with the vehicle group”, the “T-C at 1000 mm^3 (tumor growth delay)” value was 17 days. Besides, the Tumor volume is 139 ± 10 mm^3 (day 7 (start of treatment), mean ± SEM, doses as in column head); 168 ± 13 mm^3 (day 9, mean ± SEM); 212 ± 20 mm^3 (day 13, mean ± SEM); 252 ± 28 mm^3 (day 16, mean ± SEM); 371 ± 48 mm^3 (day 20, mean ± SEM); 485 ± 61 mm^3 (day 23, mean ± SEM). The Tumor volume is, setting by setting: (day 27, mean ± SEM) 640 ± 82 mm^3; (day 30, mean ± SEM) 869 ± 100 mm^3. Also, the T/C (day 23) was 28%. In addition, the “Tumor Size at day 23” value (day 23 after tumor inoculation, doses as printed with treatment) was 485 mm^3 and 485 ± 61 mm^3. For the same substance, where the note is “doses as in Table 14”, the “antitumor activity (in words)” value is “significant antitumor activities”. In addition, for the setting “doses as in Table 14”, the “tolerability / body weight loss (in words)” value is reported as “well tolerated”.
